System: CCRF-CEM
Experiment: In vitro growth inhibition against CCRF-CEM human lymphoblast cells
Assay type: functional, cell-based
In short: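 Cells were exposed to drug in vitro for 48 h (L1210 murine leukemia; CCRF-CEM human lymphoblast). The value is the drug concentration giving 50% growth inhibition.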

With `ClCC[Se]c1ccccc1` the IC50 was 8 µM.
